Experimental findings from patent publication US9757354B2 (priority 2015, dated 2017) are described below.

Series [1] can be described thus: Dissolution rate and pH of sulfanegen salt solutions. In kind it is physicochemical. The conditions noted are these: aqueous amine solution added to sulfanegenic acid.
The nature of series [2]: Stability of sulfanegen salts in solution and on storage. The conditions noted are these: room temperature; thermal stability; unpublished results.

As for sulfanegen triethanolamine, the “dissolution on in situ formation of the salt” value in series [1] is “rapid dissolution”. The shelf life in series [2] was under 6 month.
